Assay [1] has as its target dually phosphorylated ERK2 on Tyr185 and Thr183 (ERK2-pTpY), purified (rat, UniProt P63086, phosphothreonine 183, phosphotyrosine 185). As to the kind of experiment: cell-based or functional assay.
For assay [2], the target named is 3xFLAG-tagged ERK2 (rat, UniProt P63086). Kind of assay: cell-based or functional assay.

B1: β-arrestin 1 (purified, free basal state) (natural protein, UniProt P29066 1-418, looked up)
chain: MGDKGTRVFKKASPNGKLTVYLGKRDFVDHIDLVDPVDGVVLVDPEYLKERRVYVTLTCAFRYGREDLDVLGLTFRKDLFVANVQSFPPAPEDKKPLTRLQERLIKKLGEHAYPFTFEIPPNLPCSVTLQPGPEDTGKACGVDYEVKAFCAENLEEKIHKRNSVRLVIRKVQYAPERPGPQPTAETTRQFLMSDKPLHLEASLDKEIYYHGEPISVNVHVTNNTNKTVKKIKISVRQYADICLFNTAQYKCPVAMEEADDTVAPSSTFCKVYTLTPFLANNREKRGLALDGKLKHEDTNLASSTLLREGANREILGIIVSYKVKVKLVVSRGGLLGDLASSDVAVELPFTLMHPKPKEEPPHREVPESETPVDTNLIELDTNDDDIVFEDFARQRLKGMKDDKDEEDDGTGSPHLNNR
With B1, the “ERK2-pTpY activity towards MBP, real-time fluorescence-based in vitro kinase assay; fold enhancement of the initial rate over no βarr control” value in assay [1] was ~5 fold over control. The “ERK2 autophosphorylation rate, real-time fluorescence-based in vitro kinase assay (ERK2 15 nM, βarr1 300 nM); fold enhancement of the initial rate over ERK2 alone” value in assay [2] was determined as 10.1 fold over control.

These data come from article PMC10614829 (Proceedings of the National Academy of Sciences of the …, 2023).
